Each structure is given as a SMILES string.

This assay deals with S. gordonii. As to conditions: low vs high arginine.
Where [1] appears, read: downregulated, average across the locus.

`N=C(N)NCCC[C@H](N)C(=O)O` [L-arginine]: the “Fold Change, SGO_2098 RpsD, ribosomal protein 54” value (downregulated) was −12.5. Under setting [1], the “Fold Change, SGO_0966-0978 Hsa, secondary secretion and glycosylation systems” value is −4.9; the “Fold Change, SGO_1591-593 ArcABC arginine catabolism” value is recorded as −3.5; the “Fold Change, SGO_1686-1700 Fab/acc locus, fatty acid biosynthesis” value is −11.4; the “Fold Change, SGO_2015-2028 Receptor polysaccharide biosynthesis” value is given as −8.6. Further, the “Fold Change, SGO_1566-1569 ArgDBJC, arginine biosynthesis” value (upregulated, average fold change across the locus) was 339.6.

These data come from US10570401B2, “Compositions and method for destabilizing, altering, and dispersing biofilms” (priority 2013, dated 2020).
